What all share (test): Competition binding assay with [3H]flunitrazepam
The target in experiment [1] is human GABAA receptor containing α3 subunit (BZ site) (Homo sapiens, UniProt P18507+P34903). The settings on record: read-out: Ki α3, transfected HEK 293T, duplicate.
Experiment [2] deals with human GABAA receptor containing α1 subunit (BZ site) (Homo sapiens, UniProt P14867+P18507). The note with it: read-out: Ki α1, transfected HEK 293T, duplicate.
For experiment [3], the target named is human GABAA receptor containing α5 subunit (BZ site) (Homo sapiens, UniProt P18507+P31644). The note with it: read-out: Ki α5, transfected HEK 293T, duplicate.

Our source for the Ki values is publication PMC2859624 (Progress in neuro-psychopharmacology & biological psychiatry, 2010).

What is called Ki is the dissociation constant of the complex between target and ligand, obtained from inhibition or displacement. In the case of `C#Cc1ccc2c(c1)C(c1ccccc1F)=NC(C)c1c(C(=O)OCC)ncn1-2` (stereo not drawn) [SH-053-S-CH3-2'F, 8-ethynyl-6-(2-fluorophenyl)-4-methyl-4H-2,5,10b-triaza-benzo[e]azulene-3-carboxylic acid ethyl ester], the Ki in experiment [1] stood at 291 nM; in experiment [2] it was 468 nM; in experiment [3], 19.2 nM.
